“Also recorded” adds a separate entry of the source.
Experiment: Stability in water‐containing DMSO‐d6 (NMR spectroscopy)
Format: physicochemical
Description: NMR spectroscopy. To determine the stability in biocompatible organic solvents, 3–5 (each ca. 3 mg) were dissolved in water‐containing DMSO‐d6 (0.6 mL) in air at room temperature, and periodically frozen (4–5 °C) and unfrozen. The solutions were analyzed with ^1H and ^11B{^1H} NMR spectroscopy over a period of one month.

With “closo ‐[3‐(η^6‐p‐Cymene)‐1‐[(7‐chloroquinolin‐4‐yl)oxy]butyl acetate)‐3,1,2‐RuC2B9H10] [Compound 5]” the “second tautomer present in DMSO‐d6” value (25 °C, 1H NMR) was “ca. 5%” and the “stability in water‐containing DMSO‐d6 solution” value (in air, 1H and 11B{1H} NMR, over one month) was “no changes in the ^11B{^1H} NMR spectrum; also recorded: sufficient chemical stability”.
